Results on one substance are retold here after US7332503B2, “Aporphine esters and their use in therapy” (Axon Biochemicals B.V., priority 2000, dated 2008).

For the data set the following is noted: samples diluted with MeOH for API MS; Apo formed.

For the substance “Mono-Hexadecanoyl Apomorphine [Example 4]”, the sensitivity to methanolysis result was “very sensitive to methanolysis”.
